## Binding of CDR-mutated scFvs to a peptide of the spike HR2 region

Values reported by Li et al. 2023, doi:10.1038/s41467-023-39022-2 (FLAb copy).

The target is the same throughout: PDVDLGDISGINAS, from the HR2 region of SARS-CoV-2 spike.

Each scFv is VH, three GGGGS repeats, VL, as in the parent Ab-14, and differs from it in the CDRs of the light chain only.
VH: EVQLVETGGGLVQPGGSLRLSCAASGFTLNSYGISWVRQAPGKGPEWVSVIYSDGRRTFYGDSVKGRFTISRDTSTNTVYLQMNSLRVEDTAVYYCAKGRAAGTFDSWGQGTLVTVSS
VL: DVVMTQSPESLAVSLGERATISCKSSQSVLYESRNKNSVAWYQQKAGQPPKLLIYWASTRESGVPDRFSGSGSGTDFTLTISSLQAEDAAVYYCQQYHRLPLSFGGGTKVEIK

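The starting antibody came from a phage panning campaign against this peptide. The variants were designed computationally from a first round of random CDR variants and then made and measured. Their group label is 14L_En_Gibbs (En: ensemble of fine-tuned language models; Gibbs: Gibbs sampling). The scFvs were displayed on barcoded MATa yeast, the peptide on MATalpha yeast. Binding brings cells together so that they mate, and sequencing counts the barcode pairs among the diploids. Scores were corrected for input abundance and mapped to Kd with protein pairs of known affinity run in the same pool. The assay was run in six technical replicates.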

The parent's light chain CDRs are KSSQSVLYESRNKNSVA, WASTRES, QQYHRLPLS; each variant's own CDRs replace them letter for letter. Numbers give log10(Kd / nM), so 0 is 1 nM and 3 is 1 µM. Smaller is tighter. "ND" marks a missing value. The strain was present, yet no cells mated with the target were sequenced in that replicate, which points to weak or no binding. In the paper, a design with two or fewer of six values counts as a poor binder. Empty control strains, which show no peptide, gave a signal in 4% of pairings with all light chain designs; the median was 2.64 and 95% of these signals were weaker than 1.59. No background was subtracted. Also given: how often the same scFv was detected with the empty control strains, with their mean in brackets. Values of this round are not directly comparable with the first-round values of the same sequences. Of ten entries with the parent sequence, four were seen in most replicates (averages 0.34 to 2.37), three in one and three in none, so single entries are noisy.

{"CDR-L1": "NITQIFDNMGDQRSNVA", "CDR-L2": "NGETLFH", "CDR-L3": "QQYARLPLL", "replicates, log10 nM": "0.87 0.56 0.41 0.51 0.49 0.63", "empty controls": "2/18 (3.19)"}
{"CDR-L1": "SIDEYQWYHEAVNQNIA", "CDR-L2": "DAEAVRP", "CDR-L3": "QQYFMLPLS", "replicates, log10 nM": "1.21 0.71 1.70 0.92 1.55 1.91", "empty controls": "1/18 (2.76)"}
{"CDR-L1": "QIEFEDVQYTANEQAVA", "CDR-L2": "EMNQRMQ", "CDR-L3": "QQYFHLPLG", "replicates, log10 nM": "ND ND ND ND ND ND", "empty controls": "0/18"}
{"CDR-L1": "HINTALKTVDDHYSNVA", "CDR-L2": "EQRLTSI", "CDR-L3": "QQYFRLPLS", "replicates, log10 nM": "0.32 0.32 0.16 0.10 0.87 0.71", "empty controls": "1/18 (2.29)"}
{"CDR-L1": "SVQYQLVNGRDIKNPVA", "CDR-L2": "EASHHAA", "CDR-L3": "QQYDRLPLG", "replicates, log10 nM": "2.19 2.90 2.06 1.91 2.30 2.96", "empty controls": "0/18"}
{"CDR-L1": "HLSDFLSYGKDLQAAVA", "CDR-L2": "GVQTRMT", "CDR-L3": "QQYARLPLF", "replicates, log10 nM": "0.21 0.05 -0.16 -0.22 -0.04 0.10", "empty controls": "0/18"}
{"CDR-L1": "QMTFQLFEQGNRSGPIA", "CDR-L2": "HESMRET", "CDR-L3": "QQYAQLPLT", "replicates, log10 nM": "1.61 1.55 1.69 1.39 1.48 1.36", "empty controls": "2/18 (2.76)"}
{"CDR-L1": "SLVQEKSVGDANMGNIA", "CDR-L2": "AADQLSV", "CDR-L3": "QQYNRLPLS", "replicates, log10 nM": "0.52 -0.02 0.92 0.19 0.14 0.74", "empty controls": "1/18 (2.27)"}
{"CDR-L1": "KFSYVYEMVNTDKESIA", "CDR-L2": "DAHTVQM", "CDR-L3": "QQYSRLPLA", "replicates, log10 nM": "2.46 1.48 1.60 1.72 1.15 1.39", "empty controls": "0/18"}
{"CDR-L1": "VFSGLFQGDEQSYNSVA", "CDR-L2": "EASLSNT", "CDR-L3": "QQYISLPLS", "replicates, log10 nM": "ND ND ND ND ND ND", "empty controls": "2/18 (1.74)"}
{"CDR-L1": "HFAHPWQSGYESKQNVA", "CDR-L2": "NASTVMT", "CDR-L3": "QHYNRLPLS", "replicates, log10 nM": "0.76 0.65 0.39 0.54 0.64 0.83", "empty controls": "0/18"}
{"CDR-L1": "SVTNETDGNGLKWNSVA", "CDR-L2": "DAEELMT", "CDR-L3": "QDYFRLPIT", "replicates, log10 nM": "1.27 2.13 1.85 1.80 1.75 2.61", "empty controls": "1/18 (3.48)"}
{"CDR-L1": "QMTESDHGHQAGVGSIA", "CDR-L2": "DATESME", "CDR-L3": "QQYMHLPLS", "replicates, log10 nM": "1.18 0.88 0.87 0.72 1.12 1.39", "empty controls": "3/18 (2.68)"}
{"CDR-L1": "KLDMSLNYESVALDSIA", "CDR-L2": "EEVMHTA", "CDR-L3": "QQYDRLPLF", "replicates, log10 nM": "ND ND ND ND ND ND", "empty controls": "0/18"}
{"CDR-L1": "KMNMAFQQDLMDEYSVA", "CDR-L2": "DHMTAVT", "CDR-L3": "QQYGRLPLS", "replicates, log10 nM": "ND ND ND ND ND ND", "empty controls": "0/18"}
{"CDR-L1": "HIDSQEVGTIGAESNVA", "CDR-L2": "ETNTLLY", "CDR-L3": "QQYSHLPLS", "replicates, log10 nM": "1.51 1.14 1.30 1.79 1.66 1.33", "empty controls": "0/18"}
{"CDR-L1": "HYENISEPMGRYDQNIA", "CDR-L2": "NVSLREH", "CDR-L3": "QQYFMLPLS", "replicates, log10 nM": "0.06 0.75 0.09 -0.07 0.26 0.59", "empty controls": "1/18 (1.91)"}
{"CDR-L1": "RVSSMLMAGGIHYNNIA", "CDR-L2": "NTKVLEY", "CDR-L3": "QQYMRLPLM", "replicates, log10 nM": "0.20 0.07 -0.16 -0.14 -0.21 -0.01", "empty controls": "1/18 (3.00)"}
{"CDR-L1": "NFEMFDGMLNMYASSIA", "CDR-L2": "NAHCLVQ", "CDR-L3": "QQYYRLPIS", "replicates, log10 nM": "1.84 1.72 2.57 1.29 1.19 1.61", "empty controls": "3/18 (2.12)"}
{"CDR-L1": "SLYEWETDGQDKSNNIA", "CDR-L2": "EDSHLLE", "CDR-L3": "QQYFHLPLK", "replicates, log10 nM": "1.06 1.00 0.86 0.48 0.19 0.54", "empty controls": "0/18"}
{"CDR-L1": "RLRNMWNGWVNNGASIA", "CDR-L2": "DANMYAP", "CDR-L3": "QQYQRLPLA", "replicates, log10 nM": "0.29 0.11 0.47 -0.02 0.54 0.44", "empty controls": "1/18 (2.27)"}
{"CDR-L1": "QLGDEQVSETLMANNIA", "CDR-L2": "HSDFRAD", "CDR-L3": "QQYFRLPLL", "replicates, log10 nM": "0.63 0.84 0.81 0.91 0.58 0.85", "empty controls": "1/18 (2.69)"}
{"CDR-L1": "KLSMKTYGPTEIKSNVA", "CDR-L2": "NDEMRWQ", "CDR-L3": "QQYDKLPLI", "replicates, log10 nM": "1.96 2.20 1.57 1.89 1.32 ND", "empty controls": "0/18"}
{"CDR-L1": "SFERGLAGSSLVQNNVA", "CDR-L2": "EGKTLWE", "CDR-L3": "QQYMRLPLS", "replicates, log10 nM": "1.71 1.44 2.19 1.56 0.73 ND", "empty controls": "0/18"}
{"CDR-L1": "NFGQKMALYTGDRYSIA", "CDR-L2": "DATVRAD", "CDR-L3": "QQYSRLPLT", "replicates, log10 nM": "0.32 0.11 0.11 0.12 0.09 0.22", "empty controls": "0/18"}
{"CDR-L1": "LMNERMEMGENQQHNIA", "CDR-L2": "NAAHLVH", "CDR-L3": "QDYHRLPLG", "replicates, log10 nM": "1.32 1.24 0.69 1.27 1.10 1.61", "empty controls": "0/18"}
{"CDR-L1": "KLTAAQNDYGQNYSAIA", "CDR-L2": "EEVNSLQ", "CDR-L3": "QQYHHLPLS", "replicates, log10 nM": "ND ND ND ND ND ND", "empty controls": "0/18"}
{"CDR-L1": "KMTGGLLDGNREPSNIA", "CDR-L2": "AQDIGTD", "CDR-L3": "QQYNRLPFI", "replicates, log10 nM": "0.17 0.29 0.19 0.14 0.03 -0.04", "empty controls": "3/18 (2.39)"}
{"CDR-L1": "KLYYDAAQRVMDAENIA", "CDR-L2": "EKTESYQ", "CDR-L3": "QQYHRLPLS", "replicates, log10 nM": "ND ND ND ND ND ND", "empty controls": "0/18"}

From the list, the first 5 with no signal in any replicate:

| CDR-L1 | CDR-L2 | CDR-L3 | replicates, log10 nM | empty controls |
|---|---|---|---|---|
| QIEFEDVQYTANEQAVA | EMNQRMQ | QQYFHLPLG | ND ND ND ND ND ND | 0/18 |
| VFSGLFQGDEQSYNSVA | EASLSNT | QQYISLPLS | ND ND ND ND ND ND | 2/18 (1.74) |
| KLDMSLNYESVALDSIA | EEVMHTA | QQYDRLPLF | ND ND ND ND ND ND | 0/18 |
| KMNMAFQQDLMDEYSVA | DHMTAVT | QQYGRLPLS | ND ND ND ND ND ND | 0/18 |
| KLTAAQNDYGQNYSAIA | EEVNSLQ | QQYHHLPLS | ND ND ND ND ND ND | 0/18 |